In PMC3688836 one finds PLA signal after stimulation, percent of that in cells pretreated with LY294002 data, which are given here for one substance.

Amino acid sequences for entries named in this document (tags omitted). A change or cut given only in a name is not applied to a line headed by its entry.
UniProt P47197: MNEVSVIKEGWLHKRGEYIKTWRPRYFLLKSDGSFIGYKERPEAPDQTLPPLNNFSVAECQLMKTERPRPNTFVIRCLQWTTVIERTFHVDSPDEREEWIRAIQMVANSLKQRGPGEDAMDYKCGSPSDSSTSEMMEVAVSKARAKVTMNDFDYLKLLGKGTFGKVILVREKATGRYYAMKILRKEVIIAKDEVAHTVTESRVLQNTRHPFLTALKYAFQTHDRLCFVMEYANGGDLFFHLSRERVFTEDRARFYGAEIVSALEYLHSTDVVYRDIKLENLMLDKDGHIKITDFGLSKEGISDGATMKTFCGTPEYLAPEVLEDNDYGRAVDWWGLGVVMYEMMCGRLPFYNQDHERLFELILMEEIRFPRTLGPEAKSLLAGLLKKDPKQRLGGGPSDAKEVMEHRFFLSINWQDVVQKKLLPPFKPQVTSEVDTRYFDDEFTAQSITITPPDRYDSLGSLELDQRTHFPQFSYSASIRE

The experiment deals with AKT2 (embryonic rat cardiomyocytes) (rat (endogenous in embryonic E18 rat cardiac myocytes)) (UniProt P47197). In words: proximity ligation; Duolink in situ PLA on embryonic rat cardiac myocytes, serum deprived overnight, stimulated with angiotensin II (30 min, 100 nM), IGF-1 (10 min, 1 µg/ml) or insulin (10 min, 1,75 µg/ml); signals/nuclei relative to cells pretreated with LY294002 (1 h, 50 µM) before the stimulant (= 100%).

For “Elongation factor 2 (embryonic rat cardiomyocytes) (from UniProt P05197 1-858) (natural protein)”, the PLA signal after stimulation, percent of that in cells pretreated with LY294002 lay in the range of 25 to 50%.
